# Antibody variant affinities, Ab-14 light chain, assay 1

Binding partner: SARS-CoV-2 spike HR2 peptide, sequence PDVDLGDISGINAS.

Each scFv is VH, a 15-residue (Gly4Ser)3 linker, VL, as in the parent Ab-14, and differs from it in the CDRs of the light chain only.
VH: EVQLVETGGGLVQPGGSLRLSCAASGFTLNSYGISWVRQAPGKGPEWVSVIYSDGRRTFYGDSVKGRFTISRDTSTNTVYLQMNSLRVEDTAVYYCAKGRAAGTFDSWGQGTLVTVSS
VL: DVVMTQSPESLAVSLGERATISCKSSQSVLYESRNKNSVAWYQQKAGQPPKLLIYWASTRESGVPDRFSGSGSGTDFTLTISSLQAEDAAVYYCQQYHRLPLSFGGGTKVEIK

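The starting antibody came from a phage panning campaign against this peptide. The library (AAYL50) carries one to three amino acid substitutions per variant, with no insertions or deletions. The scFvs were displayed on barcoded MATa yeast, the peptide on MATalpha yeast. Pairs that bind mate more often; barcode pairs of the diploids are counted by sequencing. Each replicate has its own calibration line, from reference interactions of the BCL2 family. The assay was run in three technical replicates.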

The parent's light chain CDRs are KSSQSVLYESRNKNSVA, WASTRES, QQYHRLPLS; each variant's own CDRs replace them letter for letter. Affinities are written as log10 Kd with Kd in nM; a lower number is a better binder. Replicates are averaged; those with no signal do not enter the mean. "not detected" means that the variant was in the library but no mating with the target was seen in any replicate; the authors take this as a sign of poor binding, and no number exists. In this assay the parent's reference entry averaged 0.65; its copy inside this library read 1.68. As a blank, each scFv also met three strains without target: over library AAYL50, 18% of these pairings were detected, typically at 4.19 and seldom below 2.99. For each scFv, signals with the empty controls are counted beside the result.

{"CDR-L1": "KSSQSVLYESTNKNSVA", "CDR-L2": "WASTRET", "CDR-L3": "QQYHRLPSS", "mean, log10 nM": "not detected", "detected": "0/3", "empty controls": "2/9"}
{"CDR-L1": "KSSQSVLYASRNDNSVA", "CDR-L2": "WAFTRES", "CDR-L3": "QQYHRLPLS", "mean, log10 nM": "2.58", "detected": "1/3", "empty controls": "0/9"}
{"CDR-L1": "KSSQTVLYESRNKNSVR", "CDR-L2": "WASTRES", "CDR-L3": "QQYHRSPLS", "mean, log10 nM": "not detected", "detected": "0/3", "empty controls": "1/9"}
{"CDR-L1": "KSSQFVLYESRNKNHVA", "CDR-L2": "WARTRES", "CDR-L3": "QQYHRLPLS", "mean, log10 nM": "not detected", "detected": "0/3", "empty controls": "3/9"}
{"CDR-L1": "KSSQSVLYESRNKNSVG", "CDR-L2": "WASTRES", "CDR-L3": "QQYHPRPLS", "mean, log10 nM": "not detected", "detected": "0/3", "empty controls": "0/9"}
{"CDR-L1": "KSSQSVAYESRNKNSVA", "CDR-L2": "WMSTRES", "CDR-L3": "QQYHRLNLS", "mean, log10 nM": "6.14", "detected": "1/3", "empty controls": "3/9"}
{"CDR-L1": "KQSQSVLYESRNKNSVA", "CDR-L2": "WAETRES", "CDR-L3": "NQYHRLPLS", "mean, log10 nM": "1.93", "detected": "3/3", "empty controls": "5/9"}
{"CDR-L1": "KSHQSVLPESRNKNSVA", "CDR-L2": "WASTRES", "CDR-L3": "QQYHRYPLS", "mean, log10 nM": "3.40", "detected": "3/3", "empty controls": "6/9"}
{"CDR-L1": "KSSQPVLYESRAKNDVA", "CDR-L2": "WASTRES", "CDR-L3": "QQYHRLPLS", "mean, log10 nM": "2.62", "detected": "3/3", "empty controls": "3/9"}
{"CDR-L1": "KSSQSRLYESRPKNSVA", "CDR-L2": "WASTRES", "CDR-L3": "FQYHRLPLS", "mean, log10 nM": "not detected", "detected": "0/3", "empty controls": "0/9"}
{"CDR-L1": "KSSQSVLYESRNPNSVT", "CDR-L2": "WASTRNS", "CDR-L3": "QQYHRLPLS", "mean, log10 nM": "not detected", "detected": "0/3", "empty controls": "0/9"}
{"CDR-L1": "KSSQSVLYESRNTNSVA", "CDR-L2": "WASTSES", "CDR-L3": "QQYHRGPLS", "mean, log10 nM": "4.65", "detected": "2/3", "empty controls": "2/9"}
{"CDR-L1": "KSSQSVLYESRNKNWVA", "CDR-L2": "WASTRPS", "CDR-L3": "QQKHRLPLS", "mean, log10 nM": "not detected", "detected": "0/3", "empty controls": "3/9"}
{"CDR-L1": "KSSQSVLYESRNKNDVR", "CDR-L2": "WASTRES", "CDR-L3": "QQYHRLPLW", "mean, log10 nM": "4.43", "detected": "1/3", "empty controls": "2/9"}
{"CDR-L1": "KSSQSGLYESRNKNSVA", "CDR-L2": "WADTRER", "CDR-L3": "QQYHRLPLS", "mean, log10 nM": "0.58", "detected": "3/3", "empty controls": "0/9"}
{"CDR-L1": "KSSQSDLYESRNKPSVA", "CDR-L2": "WASTRES", "CDR-L3": "QQYHRLPLS", "mean, log10 nM": "1.73", "detected": "3/3", "empty controls": "0/9"}
{"CDR-L1": "KSRQSVLYESRNKNSVA", "CDR-L2": "WASSRES", "CDR-L3": "QQYHRLHLS", "mean, log10 nM": "3.29", "detected": "1/3", "empty controls": "1/9"}
{"CDR-L1": "KSSQSVLYESRNKNSVA", "CDR-L2": "WASTRES", "CDR-L3": "QQYFRLPCS", "mean, log10 nM": "1.17", "detected": "3/3", "empty controls": "2/9"}
{"CDR-L1": "KSSQSVLYESRNKNSVA", "CDR-L2": "WASTRHS", "CDR-L3": "QQYHRLWLF", "mean, log10 nM": "2.33", "detected": "3/3", "empty controls": "5/9"}
{"CDR-L1": "KSFQSVLYESRNKNSVA", "CDR-L2": "WASTRES", "CDR-L3": "QTYHRLPLS", "mean, log10 nM": "1.66", "detected": "3/3", "empty controls": "0/9"}
{"CDR-L1": "KSSQSVLYESRNKNSVA", "CDR-L2": "WASTRES", "CDR-L3": "MQYHRLPHS", "mean, log10 nM": "4.44", "detected": "1/3", "empty controls": "2/9"}

For reference, 4 entries of the list once more:

CDR-L1	CDR-L2	CDR-L3	mean, log10 nM	detected	empty controls
KQSQSVLYESRNKNSVA	WAETRES	NQYHRLPLS	1.93	3/3	5/9
KSSQSVLYESRNPNSVT	WASTRNS	QQYHRLPLS	not detected	0/3	0/9
KSSQPVLYESRAKNDVA	WASTRES	QQYHRLPLS	2.62	3/3	3/9
KSRQSVLYESRNKNSVA	WASSRES	QQYHRLHLS	3.29	1/3	1/9

Source: Engelhart et al. 2022 (doi:10.1038/s41597-022-01779-4), MIT Lincoln Laboratory and A-Alpha Bio; data file from the FLAb repository.